Data reported in ChEMBL document CHEMBL1145905, “Design and synthesis of novel dimeric morphinan ligands for kappa and micro opioid receptors” (J Med Chem, 2003).

By UniProt entry, the sequences of proteins in these tests, tags left out. Where a name states a change or a piece, a line headed by the entry shows the natural chain unless it says otherwise.
UniProt P41145: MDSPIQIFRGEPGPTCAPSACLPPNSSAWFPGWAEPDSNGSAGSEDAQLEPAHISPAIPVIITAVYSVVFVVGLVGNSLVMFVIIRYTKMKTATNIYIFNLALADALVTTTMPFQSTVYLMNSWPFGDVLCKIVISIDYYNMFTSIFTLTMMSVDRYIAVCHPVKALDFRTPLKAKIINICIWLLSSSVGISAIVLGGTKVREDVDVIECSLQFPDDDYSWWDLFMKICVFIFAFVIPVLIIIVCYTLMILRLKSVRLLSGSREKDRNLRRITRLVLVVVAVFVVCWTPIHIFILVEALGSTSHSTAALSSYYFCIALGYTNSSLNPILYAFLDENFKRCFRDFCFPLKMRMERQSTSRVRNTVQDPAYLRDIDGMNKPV
UniProt P35372, whole entry, looked up: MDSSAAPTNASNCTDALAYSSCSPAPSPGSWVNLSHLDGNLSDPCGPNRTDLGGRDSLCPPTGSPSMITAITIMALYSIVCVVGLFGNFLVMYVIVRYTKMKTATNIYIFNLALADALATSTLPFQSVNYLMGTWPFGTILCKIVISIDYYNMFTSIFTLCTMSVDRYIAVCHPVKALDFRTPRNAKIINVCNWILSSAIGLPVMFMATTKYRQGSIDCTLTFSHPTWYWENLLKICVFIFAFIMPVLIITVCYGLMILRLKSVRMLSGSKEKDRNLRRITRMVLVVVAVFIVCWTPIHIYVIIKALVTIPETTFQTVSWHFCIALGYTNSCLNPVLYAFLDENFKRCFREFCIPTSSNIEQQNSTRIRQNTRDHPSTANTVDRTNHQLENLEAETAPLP
UniProt P41143, whole entry, looked up: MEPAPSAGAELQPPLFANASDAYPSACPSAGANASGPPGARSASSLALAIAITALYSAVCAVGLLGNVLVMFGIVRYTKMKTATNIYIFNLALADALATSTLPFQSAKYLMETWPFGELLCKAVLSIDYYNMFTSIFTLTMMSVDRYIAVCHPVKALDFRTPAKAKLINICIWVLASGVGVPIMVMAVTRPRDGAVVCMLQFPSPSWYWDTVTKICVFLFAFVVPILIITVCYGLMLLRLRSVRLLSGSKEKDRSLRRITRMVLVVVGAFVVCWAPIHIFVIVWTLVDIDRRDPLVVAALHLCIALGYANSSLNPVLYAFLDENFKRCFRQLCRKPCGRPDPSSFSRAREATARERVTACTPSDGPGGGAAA

Tests used:
[1] = biological target: Kappa-type opioid receptor (Homo sapiens, UniProt P41145); experiment: Inhibitory activity against Opioid receptor kappa 1 in chinese Hamster Ovary (CHO) cell membranes was determined using [3H]U-69593 radioligand
[2] = biological target: Mu-type opioid receptor (Homo sapiens, UniProt P35372); experiment: Inhibitory activity against Opioid receptor mu 1 in chinese Hamster Ovary (CHO) cells membranes was determined using [3H]-DAMGO radioligand
[3] = biological target: Delta-type opioid receptor (Homo sapiens, UniProt P41143); experiment: Inhibitory activity against Opioid receptor delta 1 in chinese Hamster Ovary (CHO) cell membranes was determined using [3H]naltrindole radioligand

CN(C(=O)Cc1cccc2occc12)[C@H]1CC[C@@]2(CCCO2)C[C@@H]1N1CCCC1
Ki [1]: 0.27 nM | Ki [2]: 22 nM | Ki [3]: > 1000 nM
